We go through two sequences from publication PMC11876671, “Investigating blood–brain barrier penetration and neurotoxicity of natural products for central nervous system drug development” (Scientific Reports, 2025).

For this data set the following is noted: Table S3: compounds exhibiting low PAMPA-BBB permeability. On the technique in general: PAMPA measures passive passage across an artificial lipid membrane.

A value given as a limit tells only on which side of the number the result lay.

On to EVODIAMINE, for which the “PAMPA-BBB Pe(10^-6 cm/sec)” value is reported as <1 10^-6 cm/sec.
Take OXYPAEONIFLORIN: the “PAMPA-BBB Pe(10^-6 cm/sec)” value was <1 10^-6 cm/sec.
